What was measured:
Format in all cases: in vivo
[1] = tested on: SOD1-G93A transgenic mice; assay: Serum malondialdehyde (MDA) in SOD1-G93A transgenic mice; conditions: Riluzole 0.02 g/kg gavage, 30 days
[2] = tested on: SOD1-G93A transgenic mice; assay: Survival time of SOD1-G93A transgenic mice with ALS; conditions: Riluzole 0.02 g/kg gavage
[3] = tested on: SOD1-G93A transgenic mice; assay: Time to onset of paralysis in SOD1-G93A transgenic mice; conditions: Riluzole 0.02 g/kg gavage; no division by gender
Procedure: After ALS model mice were determined to have significant changes compared to negative control mice in behavioral test by combining literature as well as prior experience, they were randomly grouped according to their body weight. The drug administration was started and mice were observed. The groups were specifically divided into: model control group (M), positive drug control group (Riluzole, 0.02 g/kg, R), and low-dose (073-L), medium-dose (073-M), and high-dose groups (073-H) of the pharmaceutical composition of the present invention, with 30 animals in each group.
The corresponding drug solution was administered via gavage using a syringe at a volume of 10 ml/kg. The model group and negative control group were administered with an equivalent volume of sterile injectable water. […]
Neurological function was evaluated during the dosing phase using the Snow scoring method twice weekly. […]
The time from administration to the first occurrence of a neurological function score ≥3.5 was defined as the time to onset of paralysis. The mean time to onset of paralysis of animals was calculated. […] The paralysis delay rate for each drug group was also calculated according to the following formula: […]
The time from administration to the first occurrence of a neurological function score ≥3.5 was defined as the time to onset of paralysis. The mean time to onset of paralysis of animals was calculated. […]

Nc1nc2ccc(OC(F)(F)F)cc2s1 [Riluzole]
Serum malondialdehyde content, MDA [1]: 31.0 ± 4.8 µM
Survival time ([2]; female): 142.3 ± 6.6 days
Survival time ([2]; male): 140.4 ± 13.0 days
Survival time ([2]; no division by gender): 141.4 ± 9.9 days
Time to onset of paralysis [3]: 134.8 ± 14.2 days

— US20260256860A1, “TRADITIONAL CHINESE MEDICINE COMPOSITION FOR TREATING AMYOTROPHIC LATERAL SCLEROSIS AND USE THEREOF” (HEBEI YILING MEDICAL RESEARCH INSTITUTE CO., LTD, priority 2023, published 2026)
